Reference: patent US6357163B1, “Use of nucleic acid analogues in diagnostics and analytical procedures” (priority 1991, dated 2002)

System: plasmid pT10 (dA10/dT10 tract cloned into the BamHI site in pUC19), BamHI cleavage
Assay: Inhibition of restriction enzyme cleavage by PNA

TTT-TTT-TTT-T-Lys-NH2 [H-T10-LysNH2]
cleavage by BamHI (pT10 cleaved with BamHI and PvuII in the presence of PNA): inhibited
yield of PNA-dsDNA complex formation (plasmid pT10): 100%
